Source: patent publication US9861706B2, “GLP-1 receptor agonist peptide gastrin conjugates” (priority 2011, dated 2018)

Biological target: human GLP-1 receptor (human) (UniProt P43220)
Assay: cell-based or functional assay

Exendin-4(1-39) (peptide)
EC50, cAMP induction in HEK293 cells expressing human GLP-1 R: 0.017 nM
